Our source for the activation values is PubChem BioAssay AID434950 (Johns Hopkins Ion Channel Center, 2010).

Chains of the proteins cited; added tags and fusions are not shown. Lines headed by an entry give the natural chain unless they say otherwise; changes in a name come on top.
UniProt Q61143: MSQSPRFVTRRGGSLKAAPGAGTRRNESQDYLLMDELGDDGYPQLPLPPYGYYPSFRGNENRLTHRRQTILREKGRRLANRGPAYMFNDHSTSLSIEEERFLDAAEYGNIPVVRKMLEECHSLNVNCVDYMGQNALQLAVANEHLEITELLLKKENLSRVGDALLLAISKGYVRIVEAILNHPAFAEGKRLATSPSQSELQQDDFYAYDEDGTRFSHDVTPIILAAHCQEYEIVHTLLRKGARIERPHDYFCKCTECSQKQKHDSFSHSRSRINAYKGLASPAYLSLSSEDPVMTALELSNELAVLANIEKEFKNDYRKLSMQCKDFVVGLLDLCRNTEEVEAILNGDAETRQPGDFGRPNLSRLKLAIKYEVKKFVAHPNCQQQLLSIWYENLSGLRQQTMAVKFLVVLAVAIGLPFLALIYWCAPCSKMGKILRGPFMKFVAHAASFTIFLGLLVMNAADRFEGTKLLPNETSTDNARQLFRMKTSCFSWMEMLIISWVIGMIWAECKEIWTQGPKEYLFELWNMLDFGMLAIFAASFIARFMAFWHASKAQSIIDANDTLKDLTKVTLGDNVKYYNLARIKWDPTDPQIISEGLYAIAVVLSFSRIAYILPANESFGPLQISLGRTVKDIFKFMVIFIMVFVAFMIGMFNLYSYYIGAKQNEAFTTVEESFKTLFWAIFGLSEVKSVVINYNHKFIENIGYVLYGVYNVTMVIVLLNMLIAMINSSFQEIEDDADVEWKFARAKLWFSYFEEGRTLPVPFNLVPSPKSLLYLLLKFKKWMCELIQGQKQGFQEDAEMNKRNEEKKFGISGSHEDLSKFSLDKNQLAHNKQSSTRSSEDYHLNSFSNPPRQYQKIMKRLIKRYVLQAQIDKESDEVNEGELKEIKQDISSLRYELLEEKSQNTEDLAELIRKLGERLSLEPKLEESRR

This is a selection; strong and weak results do not stand in their true shares. Activity calls are given as the source filed them.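 The calls were made as follows: active = membrane potential signal rise above negative control mean plus 3 SD in both duplicates, also active in the earlier TRPC4 screen; inactive = the rest.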

The experiment has as its target Short transient receptor potential channel 6 (Mus musculus) (UniProt Q61143). Put plainly: activation of mouse TRPC6 channel, confirmation, selectivity assay for TRPC4 activator project, cell-based, HEK293, membrane potential dye, duplicate (AID 434950).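 Also: 0% = buffer only wells and 100% = acetylcholine maximal-effect wells.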 The conditions noted are these: HEK293 TRPC6, membrane potential fluorescence, at 10 µM, active compounds read high.
`CN(C)C1(CNC(=O)c2ccc(Cl)c(S(N)(=O)=O)c2)CCCCC1`: the activation was inactive: 0%.
